# Source: patent US20060275503A1, “Combination treatment with strontium for the prophylaxis and/or treatment of cartilage and/or bone conditions” (Nordic Bone A/S, priority 2003, published 2006)
# Procedure: The solubility of the organic carboxylic acid strontium salts, were measured in water. The solubility of these salts was also measured as a function of temperature. This was performed by incubating the saturated solutions of the salts in temperature controlled incubators.
# The buffered solutions were immersed into a bath of water temperature controlled at either room temperature (22-24° C.), at 30° C. or at 40° C. […] In order to eliminate any reminiscent strontium chloride influence on the determination of solubility, all the precipitate was collected at the bottom of the test tubes and the solutions above the precipitate were carefully removed and substituted by fresh solutions. […] From these solutions, the dissolved proportions of the strontium salt were collected in volumes of 1 mL at the specified temperature. […]
# Two methods were used for quantification of strontium in solutions: Flame Atomic Absorption Spectrometry (F-AAS), and the more sensitive inductively-coupled-plasma-mass spectrometry (ICP-MS).
# The solubilities were investigated as described above, and strontium content in the saturated solutions determined as described here below.
# Some of the very soluble strontium salts were further diluted before analysis by F-AAS. […] Strontium was measured at a slit with of 0.2 nm, the wavelength was 460.8 nm operated at an energy of 58 and a current of 8 mA. […]
substance,measurement,value
strontium α-ketoglutarate [α-ketogluterate],SOLUBILITY AT ROOM TEMPERATURE (22-24° C. mg/L) In water,1316 mg/L
